# Experimental data published in US11912701B2, “Protein kinase inhibitors for promoting liver regeneration or reducing or preventing hepatocyte death” (HEPAREGENIX GMBH, priority 2018, dated 2024).
# Amino acid sequences for entries named in this document (tags omitted). Residues count along the entry.
# UniProt P15056, whole entry, species assumed: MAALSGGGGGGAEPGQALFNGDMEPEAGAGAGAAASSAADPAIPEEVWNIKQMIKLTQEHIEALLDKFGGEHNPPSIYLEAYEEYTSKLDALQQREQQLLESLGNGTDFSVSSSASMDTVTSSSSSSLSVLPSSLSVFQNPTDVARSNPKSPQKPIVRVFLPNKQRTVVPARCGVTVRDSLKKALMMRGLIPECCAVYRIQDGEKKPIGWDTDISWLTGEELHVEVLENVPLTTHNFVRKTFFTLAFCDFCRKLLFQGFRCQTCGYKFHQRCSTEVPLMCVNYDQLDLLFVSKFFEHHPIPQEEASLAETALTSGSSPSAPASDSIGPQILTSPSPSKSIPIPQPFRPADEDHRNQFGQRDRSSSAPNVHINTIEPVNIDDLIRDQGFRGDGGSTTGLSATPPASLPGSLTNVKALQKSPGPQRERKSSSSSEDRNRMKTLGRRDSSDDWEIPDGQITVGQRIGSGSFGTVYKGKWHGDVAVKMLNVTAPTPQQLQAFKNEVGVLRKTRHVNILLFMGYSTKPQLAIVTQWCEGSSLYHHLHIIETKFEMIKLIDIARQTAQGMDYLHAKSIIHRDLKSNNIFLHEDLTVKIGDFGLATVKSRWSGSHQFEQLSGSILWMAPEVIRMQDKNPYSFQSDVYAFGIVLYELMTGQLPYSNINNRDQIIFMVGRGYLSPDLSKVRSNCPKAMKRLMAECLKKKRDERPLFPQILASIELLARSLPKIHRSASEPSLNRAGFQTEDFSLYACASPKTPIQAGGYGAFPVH
# UniProt P45983, 1-384 isoform P45983-2: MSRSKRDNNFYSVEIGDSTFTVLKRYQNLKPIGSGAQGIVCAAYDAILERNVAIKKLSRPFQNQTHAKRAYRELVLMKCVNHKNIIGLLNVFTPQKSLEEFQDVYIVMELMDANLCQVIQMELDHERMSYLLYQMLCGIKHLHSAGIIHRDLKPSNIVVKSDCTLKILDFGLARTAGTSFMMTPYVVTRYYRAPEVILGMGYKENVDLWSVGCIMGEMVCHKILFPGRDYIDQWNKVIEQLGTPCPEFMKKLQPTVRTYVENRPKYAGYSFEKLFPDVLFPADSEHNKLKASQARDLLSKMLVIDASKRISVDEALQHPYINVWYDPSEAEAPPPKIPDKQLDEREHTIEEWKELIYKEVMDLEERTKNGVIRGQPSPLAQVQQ
# Tests used:
# BRaf = target: T1, BRaf (Homo sapiens, UniProt P15056); experiment: KINOMEscan competition binding assay, BRaf; conditions: ratio PoC (off-target)/PoC (MKK4)
# T1 construct: purchased ProQinase GmbH, Freiburg, Germany (33PanQinase Assay Service)
# MKK7 = target: T2, MKK7 (Homo sapiens, UniProt O14733); experiment: KINOMEscan competition binding assay, MKK7; conditions: ratio PoC (off-target)/PoC (MKK4)
# T2 construct: M1/R419; host or cells: HEK-293
# T2 sequence (O14733 1-419): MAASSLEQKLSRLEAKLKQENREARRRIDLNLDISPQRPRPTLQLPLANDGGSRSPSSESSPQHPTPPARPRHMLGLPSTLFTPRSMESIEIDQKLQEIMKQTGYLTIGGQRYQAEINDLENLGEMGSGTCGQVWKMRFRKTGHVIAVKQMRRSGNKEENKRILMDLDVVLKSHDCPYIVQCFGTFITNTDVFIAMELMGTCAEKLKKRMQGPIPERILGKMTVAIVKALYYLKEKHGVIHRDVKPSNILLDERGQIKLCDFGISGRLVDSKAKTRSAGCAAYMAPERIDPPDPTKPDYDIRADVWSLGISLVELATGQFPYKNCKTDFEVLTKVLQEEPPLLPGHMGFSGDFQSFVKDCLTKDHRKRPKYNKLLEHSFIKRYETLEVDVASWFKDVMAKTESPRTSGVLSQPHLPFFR
# JNK1 [1] = target: T3, JNK1 (Homo sapiens, UniProt P45983); experiment: KINOMEscan competition binding assay, JNK1; set-up: M1/Q384; host or cells: HEK-293; conditions: ratio PoC (off-target)/PoC (MKK4)
# JNK1 [2] = target: T3, JNK1; experiment: 33PanQinase enzyme assay, JNK1; type: biochemical; set-up: purchased ProQinase GmbH, Freiburg, Germany (33PanQinase Assay Service); conditions: ratio IC50(JNK1)/IC50(MKK4)
structure (smiles),measurement,setting,value
"O=C(c1cccc(NS(=O)(=O)Cc2ccccc2)c1F)c1c[nH]c2ncc(-c3cc4c(cc3Cl)OCCO4)cc12 [Example 127, N-(3-(5-(7-chloro-2,3-dihydrobenzo[b][1,4]dioxin-6-yl)-1H-pyrrolo[2,3-b]pyridine-3-carbonyl)-2-fluorophenyl)-1-phenylmethanesulfonamide]",selectivity based on % Ctrl @100 nM vs. Braf,BRaf,++ (100 ≥ ratio > 10)
same,selectivity based on % Ctrl @100 nM vs. MKK7,MKK7,++ (100 ≥ ratio > 10)
same,selectivity based on % Ctrl @100 nM vs. JNK1,JNK1 [1],++ (100 ≥ ratio > 10)
same,"Selectivity JNK1, IC50(off-target)/IC50(MKK4)",JNK1 [2],+ (10 ≥ IC50(off-target)/IC50(MKK4) > 3)
